Values of other authors, collected in patent publication US10213418B2, “Therapeutic uses of berberine formulations” (TWi Biotechnology, Inc., priority 2013, dated 2019).

Settings: patients on therapy; cited from earlier work

## CC(=O)Nc1cccc(-n2c(=O)n(C3CC3)c(=O)c3c(Nc4ccc(I)cc4F)n(C)c(=O)c(C)c32)c1 [trametinib]
  papulopustular rash reported: 80 % of patients
